Results: patent publication US20240360179A1, “STAPLED PEPTIDES AND METHODS THEREOF” (FOG PHARMACEUTICALS, INC., priority 2021, published 2024)

The chains behind the UniProt entries cited, without tags or fusion partners.
UniProt P35222, whole entry: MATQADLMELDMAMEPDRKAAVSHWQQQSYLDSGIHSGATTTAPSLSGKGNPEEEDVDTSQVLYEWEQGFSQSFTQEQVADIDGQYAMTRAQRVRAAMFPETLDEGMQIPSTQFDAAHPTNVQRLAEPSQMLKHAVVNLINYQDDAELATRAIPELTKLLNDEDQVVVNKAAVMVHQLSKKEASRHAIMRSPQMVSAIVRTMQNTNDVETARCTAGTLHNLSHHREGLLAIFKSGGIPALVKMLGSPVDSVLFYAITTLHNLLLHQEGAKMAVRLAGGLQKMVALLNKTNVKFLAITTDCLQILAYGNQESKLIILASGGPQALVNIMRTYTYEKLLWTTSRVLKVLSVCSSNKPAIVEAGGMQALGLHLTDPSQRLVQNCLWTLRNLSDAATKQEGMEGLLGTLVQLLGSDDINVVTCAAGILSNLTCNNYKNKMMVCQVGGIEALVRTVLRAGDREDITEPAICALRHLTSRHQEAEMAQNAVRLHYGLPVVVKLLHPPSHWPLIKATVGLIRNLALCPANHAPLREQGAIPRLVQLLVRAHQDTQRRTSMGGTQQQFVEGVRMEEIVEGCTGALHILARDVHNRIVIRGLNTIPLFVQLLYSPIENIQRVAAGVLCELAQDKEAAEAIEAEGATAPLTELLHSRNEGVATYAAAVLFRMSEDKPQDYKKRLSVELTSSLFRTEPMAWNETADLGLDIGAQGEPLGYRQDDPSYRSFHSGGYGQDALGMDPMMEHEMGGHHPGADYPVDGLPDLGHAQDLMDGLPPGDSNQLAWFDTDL

How the values were obtained:
[1] = target: T1, full-length B-Catenin (Uniprot ID P35222) (Homo sapiens, UniProt P35222); test: biochemical; type: binding; details: beta-Catenin FP IC50 (nM), competition fluorescence polarization
T1 construct: 10 nM full-length B-Catenin (Uniprot ID P35222)

[2] = target: beta-catenin/TCF4 interaction (Homo sapiens, UniProt P35222); test: cell-based; set-up: host or cells: HEK293; details: NanoBRET Abs IC50 (uM)

IC50 [1] | IC50 ([2]; absolute IC50) | IC50 [2] | Structure (SMILES)
< 50 nM | > 10 µM |  | CC(=O)N1CCC[C@]12CC=CCCCC1(CCCC=CCCCOC(=O)N3CC[C@@]4(C3)NC(=O)[C@H](CCCCNC(=O)CC[C@@H](C(=O)N[C@@H](C)C(N)=O)NC(=O)[C@H](Cc3csc5ccccc35)NC(=O)[C@H](Cc3ccsc3)NC4=O)NC(=O)[C@H](Cc3ccccc3)NC(=O)[C@H](CCC(=O)N3CCOCC3)NC(=O)C(C)(C)NC(=O)[C@H](Cc3cccc(C(=O)O)c3)NC(=O)[C@H](CC(=O)O)NC1=O)NC(=O)[C@H](CC(C)(C)C)NC(=O)[C@H](CC(=O)O)NC2=O (relative stereo) [I-453, Ac-PL3-Asp-Npg-B5-Asp-3COOHF-Aib-MorphGln-Phe-Lys*3-PyrS2-3Thi-BztA-GlnR*3-Ala-NH2]
< 50 nM |  | 3 to 10 µM | CC(=O)N1CCC[C@]12CC=CCCCC1(CCCC=CCCCOC(=O)N3CC[C@@]4(C3)NC(=O)[C@H](CCCCNC(=O)CC[C@@H](C(=O)N[C@@H](C)C(N)=O)NC(=O)[C@H](Cc3csc5ccccc35)NC(=O)[C@H](Cc3ccsc3)NC4=O)NC(=O)[C@H](Cc3ccccc3)NC(=O)[C@H](C)NC(=O)[C@H](CO)NC(=O)[C@H](Cc3cccc(C(=O)O)c3)NC(=O)[C@H](CC(=O)O)NC1=O)NC(=O)[C@H](CC(C)(C)C)NC(=O)[C@H](CC(N)=O)NC2=O (relative stereo) [I-84, Ac-PL3-Asn-Npg-B5-Asp-3COOHF-Ser-Ala-Phe-Lys*3-PyrS2-3Thi-BztA-GlnR*3-Ala-NH2]
< 50 nM | < 1.5 µM |  | CC(=O)N1CCC[C@]12CC=CCCCC1(CCCC=CCCCOC(=O)N3CC[C@@]4(C3)NC(=O)[C@H](CCCCn3cc(nn3)C[C@@H](C(=O)N[C@@H](C)C(=O)N[C@@H](CO)C(N)=O)NC(=O)[C@H](Cc3csc5ccccc35)NC(=O)[C@H](Cc3ccsc3)NC4=O)NC(=O)[C@H](Cc3ccccc3)NC(=O)[C@H](C)NC(=O)C(C)(C)NC(=O)[C@H](Cc3cccc(C(=O)O)c3)NC(=O)[C@H](CC(=O)O)NC1=O)NC(=O)[C@H](CC(C)(C)C)NC(=O)[C@H](CC(=O)O)NC2=O (stereo partly drawn) [I-416, Ac-PL3-Asp-Npg-B5-Asp-3COOHF-Aib-Ala-Phe-TriAzLys*3-PyrS2-3Thi-BztA-sAla*3-Ala-Ser-NH2]
50 to 200 nM |  | > 10 µM | CC(=O)N1CCC[C@]12CC=CCCCC1(CCCC=CCCCOC(=O)N3CC[C@@]4(C3)NC(=O)[C@H](CCCCNC(=O)CC[C@@H](C(=O)N[C@@H](C)C(N)=O)NC(=O)[C@H](Cc3csc5ccccc35)NC(=O)[C@H](Cc3ccccc3C(F)(F)F)NC4=O)NC(=O)[C@H](Cc3ccccc3)NC(=O)[C@H](C)NC(=O)C(C)(C)NC(=O)[C@H](CCCNC(=N)N)NC(=O)[C@H](CC(=O)O)NC1=O)NC(=O)[C@H](CC(C)(C)C)NC(=O)[C@H](CC(=O)O)NC2=O (relative stereo) [I-214, Ac-PL3-Asp-Npg-B5-Asp-Arg-Aib-Ala-Phe-Lys*3-PyrS2-2F3MeF-BztA-GlnR*3-Ala-NH2]
> 1000 nM | > 10 µM |  | CC(=O)N1CCC[C@]12CC=CCCCC1(CCCC=CCCCOC(=O)N3CC[C@@]4(C3)NC(=O)[C@H](CCCCNC(=O)CC[C@@H](C(=O)N[C@@H](C)C(N)=O)NC(=O)[C@H](Cc3csc5ccccc35)NC(=O)[C@H](Cc3ccsc3)NC4=O)NC(=O)[C@H](Cc3ccccc3)NC(=O)[C@H](C)NC(=O)C(C)(C)NC(=O)[C@H](CCC(=O)O)NC(=O)[C@H](CCC(=O)O)NC1=O)NC(=O)[C@H](CC(C)(C)C)NC(=O)[C@H](CCCC(=O)O)NC2=O (relative stereo) [I-553, Ac-PL3-Aad-Npg-B5-Glu-Glu-Aib-Ala-Phe-Lys*3-PyrS2-3Thi-BztA-GlnR*3-Ala-NH2]
50 to 200 nM | > 10 µM |  | CC(=O)N1CCC[C@]12CC=CCCCC1(CCCC=CCCCOC(=O)N3CC[C@@]4(C3)NC(=O)[C@H](CCCCNC(=O)CC[C@@H](C(=O)N[C@@H](C)C(N)=O)NC(=O)[C@H](Cc3csc5ccccc35)NC(=O)[C@H](Cc3ccsc3)NC4=O)NC(=O)[C@H](CC3CCCC3)NC(=O)[C@H](C)NC(=O)C(C)(C)NC(=O)[C@H](Cc3cccc(C(=O)O)c3)NC(=O)[C@H](CC(=O)O)NC1=O)NC(=O)[C@H](CC(C)(C)C)NC(=O)[C@H](CC(=O)O)NC2=O (relative stereo) [I-354, Ac-PL3-Asp-Npg-B5-Asp-3COOHF-Aib-Ala-CypA-Lys*3-PyrS2-3Thi-BztA-GlnR*3-Ala-NH2]
< 50 nM |  | < 1.5 µM | CC(=O)N1CCC[C@]12CC=CCCCC1(CCCC=CCCCOC(=O)N3CC[C@@]4(C3)NC(=O)[C@H](CCCCNC(=O)CC[C@@H](C(=O)N[C@@H](C)C(N)=O)NC(=O)[C@H](Cc3csc5ccccc35)NC(=O)[C@H](Cc3ccccc3C)NC4=O)NC(=O)[C@H](Cc3ccccc3)NC(=O)[C@H](C)NC(=O)C(C)(C)NC(=O)[C@H](Cc3cccc(C(=O)O)c3)NC(=O)[C@H](CC(=O)O)NC1=O)NC(=O)[C@H](CC(C)(C)C)NC(=O)[C@H](CC(=O)O)NC2=O (relative stereo) [I-294, Ac-PL3-Asp-Npg-B5-Asp-3COOHF-Aib-Ala-Phe-Lys*3-PyrS2-2MeF-BztA-GlnR*3-Ala-NH2]
< 50 nM | 3 to 10 µM |  | CC(=O)N1CCC[C@]12CC=CCCCC1(CCCC=CCCCOC(=O)N3CC[C@@]4(C3)NC(=O)[C@H](CCCCNC(=O)CC[C@@H](C(=O)N[C@@H](C)C(N)=O)NC(=O)[C@H](Cc3csc5ccccc35)NC(=O)[C@H](Cc3ccsc3)NC4=O)NC(=O)[C@H](Cc3ccccc3)NC(=O)[C@H](C)NC(=O)[C@@](C)(CO)NC(=O)[C@H](Cc3cccc(C(=O)O)c3)NC(=O)[C@H](CC(=O)O)NC1=O)NC(=O)[C@H](CC(C)(C)C)NC(=O)[C@H](CC(=O)O)NC2=O (single isomer, unassigned) [I-436, Ac-PL3-Asp-Npg-B5-Asp-3COOHF-DaMeS-Ala-Phe-Lys*3-PyrS2-3Thi-BztA-GlnR*3-Ala-NH2]
 | > 10 µM |  | CC(=O)N1CCC[C@]12CC=CCCCC1(CCCC=CCCCOC(=O)N3CC[C@@]4(C3)NC(=O)[C@H](CCCCNC(=O)CC[C@@H](C(=O)N[C@@H](C)C(N)=O)NC(=O)[C@H](Cc3csc5ccccc35)NC(=O)[C@H](Cc3ccsc3)NC4=O)NC(=O)[C@H](Cc3ccccc3)NC(=O)[C@H](C)NC(=O)C3(CCNCC3)NC(=O)[C@H](Cc3cccc(C(=O)O)c3)NC(=O)[C@H](CC(=O)O)NC1=O)NC(=O)[C@H](CC(C)(C)C)NC(=O)[C@H](CC(=O)O)NC2=O (single isomer, unassigned) [I-385, Ac-PL3-Asp-Npg-B5-Asp-3COOHF-Acp-Ala-Phe-Lys*3-PyrS2-3Thi-BztA-GlnR*3-Ala-NH2]
 |  | 1.5 to 3 µM | CCCC[C@@H]1NC(=O)[C@]23CCN(C2)C(=O)OCCCC=CCCCC2(CCCC=CC[C@]4(CCCN4C(C)=O)C(=O)N[C@@H](CC(=O)O)C(=O)N[C@@H](CC(C)(C)C)C(=O)N2)C(=O)N[C@@H](CC(=O)O)C(=O)N[C@@H](Cc2cccc(C(=O)O)c2)C(=O)NC(C)(C)C(=O)N[C@@H](C)C(=O)N[C@@H](Cc2ccccc2)C(=O)N[C@@H](CCCCNC(=O)CC[C@@H](C(=O)N[C@@H](C)C(N)=O)NC(=O)[C@H](Cc2csc4ccccc24)NC1=O)C(=O)N3 (single isomer, unassigned) [I-272, Ac-PL3-Asp-Npg-B5-Asp-3COOHF-Aib-Ala-Phe-Lys*3-PyrS2-nLeu-BztA-GlnR*3-Ala-NH2]
 | < 1.5 µM |  | CC(=O)N1CCC[C@]12CC=CCCCC1(CCCC=CCCCOC(=O)N3CC[C@@]4(C3)NC(=O)[C@H](CCCCNC(=O)CC[C@@H](C(=O)N[C@@H](C)C(N)=O)NC(=O)[C@H](Cc3csc5ccccc35)NC(=O)[C@H](Cc3ccsc3)NC4=O)NC(=O)[C@H](Cc3ccccc3)NC(=O)[C@H](C)NC(=O)C3(CCCC3)NC(=O)[C@H](Cc3cccc(C(=O)O)c3)NC(=O)[C@H](CC(=O)O)NC1=O)NC(=O)[C@H](CC(C)(C)C)NC(=O)[C@H](CC(=O)O)NC2=O (single isomer, unassigned) [I-383, Ac-PL3-Asp-Npg-B5-Asp-3COOHF-CyLeu-Ala-Phe-Lys*3-PyrS2-3Thi-BztA-GlnR*3-Ala-NH2]
 | 3 to 10 µM |  | CC(=O)N1CCC[C@]12CC=CCCCC1(CCCC=CCCCOC(=O)N3CC[C@@]4(C3)NC(=O)[C@H](CCCCNC(=O)CC[C@@H](C(=O)N[C@H](CC(C)C)C(=O)N[C@@H](CO)C(=O)N[C@@H](CC(C)C)C(N)=O)NC(=O)[C@H](Cc3csc5ccccc35)NC(=O)[C@H](Cc3ccsc3)NC4=O)NC(=O)[C@H](Cc3ccccc3)NC(=O)[C@H](C)NC(=O)C(C)(C)NC(=O)[C@H](Cc3cccc(C(=O)O)c3)NC(=O)[C@H](CC(=O)O)NC1=O)NC(=O)[C@H](CC(C)(C)C)NC(=O)[C@H](CC(=O)O)NC2=O (single isomer, unassigned) [I-468, Ac-PL3-Asp-Npg-B5-Asp-3COOHF-Aib-Ala-Phe-Lys*3-PyrS2-3Thi-BztA-GlnR*3-dLeu-Ser-Leu-NH2]
 | 1.5 to 3 µM |  | CC(=O)N1CCC[C@]12CC=CCCCC1(CCCC=CCCCOC(=O)N3CC[C@@]4(C3)NC(=O)[C@H](CCCCn3cc(nn3)CC[C@@H](C(=O)N[C@@H](C)C(N)=O)NC(=O)[C@H](Cc3csc5ccccc35)NC(=O)[C@H](Cc3ccccc3)NC4=O)NC(=O)[C@H](Cc3ccccc3)NC(=O)[C@H](C)NC(=O)C(C)(C)NC(=O)[C@H](Cc3cccc(C(=O)O)c3)NC(=O)[C@H](CC(=O)O)NC1=O)NC(=O)[C@H](CC(C)(C)C)NC(=O)[C@H](CC(=O)O)NC2=O (single isomer, unassigned) [I-420, Ac-PL3-Asp-Npg-B5-Asp-3COOHF-Aib-Ala-Phe-TriAzLys*3-PyrS2-Phe-BztA-sAbu*3-Ala-NH2]
 | 3 to 10 µM |  | CC(=O)N1CCC[C@]12CC=CCCCC1(CCCC=CCCCOC(=O)N3CC[C@@]4(C3)NC(=O)[C@H](CCCCNC(=O)CC[C@@H](C(=O)N[C@H](C)C(=O)N[C@@H](CO)C(N)=O)NC(=O)[C@H](Cc3csc5ccccc35)NC(=O)[C@H](Cc3ccsc3)NC4=O)NC(=O)[C@H](Cc3ccccc3)NC(=O)[C@H](C)NC(=O)C(C)(C)NC(=O)[C@H](Cc3cccc(C(=O)O)c3)NC(=O)[C@H](CC(=O)O)NC1=O)NC(=O)[C@H](CC(C)(C)C)NC(=O)[C@H](CC(=O)O)NC2=O (single isomer, unassigned) [I-461, Ac-PL3-Asp-Npg-B5-Asp-3COOHF-Aib-Ala-Phe-Lys*3-PyrS2-3Thi-BztA-GlnR*3-dAla-Ser-NH2]
